Drawing on publication PMC8315004, “Discovery of Small-Molecule Inhibitors of SARS-CoV-2 Proteins Using a Computational and Experimental Pipeline” (Frontiers in Molecular Biosciences, 2021), this text covers inhibition for four compounds.

By inhibition is commonly meant the drop in the measured response relative to a control, in per cent.

In the assay the target is SARS-CoV-2 M^pro (Severe acute respiratory syndrome coronavirus 2, UniProt P0DTD1). The assay is described as follows: biochemical. The following applies: read-out: Normalized Percent FRET inhibition.
As for `CCC1=C[C@@H]2CN(C1)Cc1c([nH]c3ccccc13)[C@@](C(=O)OC)(c1cc3c(cc1OC)N(C)[C@H]1[C@@](O)(C(=O)OC)[C@H](OC(C)=O)[C@]4(CC)C=CCN5CC[C@]31[C@@H]54)C2` [Vinorelbine], the inhibition at 100 µM stood at 0.454%. The value for `CC(=O)N1CCN(c2ccc(OCC3COC(Cn4ccnc4)(c4ccc(Cl)cc4Cl)O3)cc2)CC1` (stereo not shown) [Ketoconazole] was -1.8%; that for `COc1cc([C@@H]2c3cc4c(cc3[C@@H](O[C@@H]3O[C@@H]5CO[C@@H](c6cccs6)O[C@H]5[C@H](O)[C@H]3O)[C@H]3COC(=O)[C@H]23)OCO4)cc(OC)c1O` [Teniposide] was 3.02%; that for `Cc1nc(Nc2ncc(C(=O)Nc3c(C)cccc3Cl)s2)cc(N2CCN(CCO)CC2)n1` [Dasatinib] was -0.25%.
